“Also recorded” adds a separate entry of the source.
Columns and labels:
[1] = test system: DiFi colorectal cancer xenografts; test: TSPO and Ki67 immunohistochemistry in DiFi CRC xenografts after mAb-C225; format: in vivo, athymic nude mice; settings: for TSPO expression in tumors (immunohistochemistry): DiFi xenografts (WT KRAS), compared with vehicle treated cohorts
Description: One embodiment of the present invention is measuring TSPO expression in tumors to evaluate treatment response. […] We have considerable previous experience with the DiFi model (wt KRAS), which was derived from a rectal tumor arising in a patient with familial polyposis.
Additionally, embodiments of the present invention are methods for predicting response to therapy. […] We have considerable experience with DiFi xenografts (wt KRAS), derived from a rectal tumor arising in a patient with familial polyposis.

DiFi human CRC cells = test: Immunoblotting of markers in DiFi cells (WT KRAS) after 24 hr drug exposure; format: cell-based; settings: for pERK levels: 24 hr
Procedure: In these studies, cultured cells were exposed to drug for 24 hr, harvested, and the protein levels of various markers were assayed by immunoblotting. […] Consistent with activation of cAMP signaling stemming from the production and cell utilization of progesterone, we found pPKA elevated following treatment with the TSPO ligand.

## C225: therapeutic monoclonal antibody that blocks ligand-induced activation of the epidermal growth factor receptor (EGFR)
[1]
  TSPO expression in tumors (immunohistochemistry): significantly decreased
[1]; listed as mAb-C225
  TSPO expression in tumors (immunohistochemistry): significant reduction of TSPO; also recorded: significantly reduced
[1]; DiFi xenografts, single therapeutic dose
  Ki67 (proliferation) in tumors: significantly reduced
DiFi human CRC cells; C225 single agent
  cleaved caspase 3 levels (apoptosis): apoptosis was induced by the elevated dosage of C225 (++) only
DiFi human CRC cells; C225 single agent 0.5 μg/mL (+)
  pERK levels: in sufficient to yield pERK inhibition
DiFi human CRC cells; C225 single agent 5.0 μg/mL (++)
  pERK levels: fully inhibited pERK levels

From patent US9458161B1, “TSPO ligands for cancer imaging and treatment” (Vanderbilt University, priority 2011, dated 2016)
